Laboratory results: US20140100156A1 (SANOFI, priority 2012, published 2014)
Read-outs that look alike come from different tables or passages of the source.

The chains behind the UniProt entries cited, without tags or fusion partners. Residues count along the entry.
UniProt P43220, 24-463: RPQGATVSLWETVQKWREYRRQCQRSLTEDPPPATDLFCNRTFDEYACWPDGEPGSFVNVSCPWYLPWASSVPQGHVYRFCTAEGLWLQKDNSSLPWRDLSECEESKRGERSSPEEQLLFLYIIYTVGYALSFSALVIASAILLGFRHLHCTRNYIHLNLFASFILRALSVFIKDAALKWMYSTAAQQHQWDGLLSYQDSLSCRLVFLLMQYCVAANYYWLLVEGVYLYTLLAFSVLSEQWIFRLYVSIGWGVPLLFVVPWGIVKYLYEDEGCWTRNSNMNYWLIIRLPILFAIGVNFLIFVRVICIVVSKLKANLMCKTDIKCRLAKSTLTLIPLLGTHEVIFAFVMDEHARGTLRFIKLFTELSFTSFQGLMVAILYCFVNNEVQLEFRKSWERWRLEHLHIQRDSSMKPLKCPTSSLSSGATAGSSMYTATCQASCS
UniProt P47871, 26-477: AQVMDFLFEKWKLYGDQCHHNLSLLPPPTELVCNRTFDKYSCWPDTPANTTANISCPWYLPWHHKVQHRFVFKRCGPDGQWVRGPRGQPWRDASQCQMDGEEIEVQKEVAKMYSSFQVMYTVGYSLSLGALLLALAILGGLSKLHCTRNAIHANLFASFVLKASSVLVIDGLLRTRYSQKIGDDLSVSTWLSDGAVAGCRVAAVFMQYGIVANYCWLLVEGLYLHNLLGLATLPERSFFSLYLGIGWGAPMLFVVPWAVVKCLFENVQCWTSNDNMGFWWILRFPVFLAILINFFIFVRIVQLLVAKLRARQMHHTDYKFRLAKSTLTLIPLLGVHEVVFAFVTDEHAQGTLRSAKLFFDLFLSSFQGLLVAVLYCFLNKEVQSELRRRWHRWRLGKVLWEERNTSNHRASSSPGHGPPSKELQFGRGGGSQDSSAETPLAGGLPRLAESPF

What was measured:
[1] = molecular target: T1, human GLP-1 receptor (Homo sapiens, UniProt P43220); test: cAMP response (HTRF) of HEK-293 cells stably expressing human GLP-1 receptor; assay type: cell-based; settings: Table 5, cAMP, HEK-293
T1 construct: expressed in transfected cells; host or cells: HEK-293

[2] = molecular target: T2, human glucagon receptor (Homo sapiens, UniProt P47871); test: cAMP response (HTRF) of HEK-293 cells stably expressing human glucagon receptor; assay type: cell-based; settings: Table 5, cAMP, HEK-293
T2 construct: expressed in transfected cells; host or cells: HEK-293

| Structure (SMILES) | EC50 ([1]; read-out: EC50 hGLP-1R) [pM] | EC50 ([2]; read-out: EC50 hGlucagon-R) [pM] | EC50 ([1]; EC50 hGLP-1R) [pM] | EC50 ([2]; EC50 hGlucagon-R) [pM] |
| --- | --- | --- | --- | --- |
| CCCCCCCCCCCCCCCC(=O)N[C@@H](CCC(=O)NCCCC[C@H](NC(=O)[C@H](CCC(N)=O)NC(=O)[C@H](CCCCN)NC(=O)[C@H](CO)NC(=O)[C@H](CC(C)C)NC(=O)[C@H](CC(=O)O)NC(=O)[C@H](CO)NC(=O)[C@@H](NC(=O)[C@H](Cc1ccccc1)NC(=O)[C@@H](NC(=O)CNC(=O)[C@H](CCC(N)=O)NC(=O)[C@@H](CO)NC(=O)[C@@H](N)Cc1c[nH]cn1)[C@@H](C)O)[C@@H](C)O)C(=O)N[C@@H](CC(=O)O)C(=O)N[C@@H](CO)C(=O)N[C@@H](CCCNC(=N)N)C(=O)N[C@@H](CCCNC(=N)N)C(=O)N[C@@H](C)C(=O)N[C@@H](CCC(N)=O)C(=O)N[C@@H](CC(=O)O)C(=O)N[C@@H](Cc1ccccc1)C(=O)N[C@H](C(=O)N[C@@H](CCC(=O)O)C(=O)N[C@@H](Cc1c[nH]c2ccccc12)C(=O)N[C@@H](CC(C)C)C(=O)N[C@@H](CCCCN)C(=O)N[C@@H](CCCCN)C(=O)NCC(=O)NCC(=O)N1CCC[C@H]1C(=O)N[C@@H](CO)C(=O)N[C@@H](CO)C(=O)NCC(=O)N[C@@H](C)C(=O)N1CCC[C@H]1C(=O)N1CCC[C@H]1C(=O)N1CCC[C@H]1C(=O)N[C@@H](CO)C(N)=O)[C@@H](C)CC)C(=O)O [compound 84] | 8.1 | 4.3 |  |  |
| CCCCCCCCCCCCCCCC(=O)N[C@@H](CCC(=O)NCCCC[C@H](NC(=O)[C@H](CCC(N)=O)NC(=O)[C@H](CCCCN)NC(=O)[C@H](CO)NC(=O)[C@H](CC(C)C)NC(=O)[C@H](CC(=O)O)NC(=O)[C@H](CO)NC(=O)[C@@H](NC(=O)[C@H](Cc1ccccc1)NC(=O)[C@@H](NC(=O)CNC(=O)[C@H](CCC(N)=O)NC(=O)[C@@H](CO)NC(=O)[C@@H](N)Cc1c[nH]cn1)[C@@H](C)O)[C@@H](C)O)C(=O)N[C@@H](CC(=O)O)C(=O)N[C@@H](CO)C(=O)N[C@@H](CCC(N)=O)C(=O)N[C@@H](C)C(=O)N[C@@H](C)C(=O)N[C@@H](CCC(N)=O)C(=O)N[C@@H](CC(=O)O)C(=O)N[C@@H](Cc1ccccc1)C(=O)N[C@H](C(=O)N[C@@H](CCC(=O)O)C(=O)N[C@@H](Cc1c[nH]c2ccccc12)C(=O)N[C@@H](CC(C)C)C(=O)N[C@@H](CCCCN)C(=O)N[C@@H](CC(N)=O)C(=O)N[C@H](C(=O)NCC(=O)N1CCC[C@H]1C(=O)N[C@@H](CO)C(=O)N[C@@H](CO)C(=O)NCC(=O)N[C@@H](C)C(=O)N1CCC[C@H]1C(=O)N1CCC[C@H]1C(=O)N1CCC[C@H]1C(=O)N[C@@H](CO)C(N)=O)[C@@H](C)O)[C@@H](C)CC)C(=O)O [compound 86] | 4.9 | 3.5 |  |  |
| CCCCCCCCCCCCCCCC(=O)N[C@@H](CCC(=O)NCCCC[C@H](NC(=O)[C@H](CCC(N)=O)NC(=O)[C@H](CCCCN)NC(=O)[C@H](CO)NC(=O)[C@H](CC(C)C)NC(=O)[C@H](CC(=O)O)NC(=O)[C@H](CO)NC(=O)[C@@H](NC(=O)[C@H](Cc1ccccc1)NC(=O)[C@@H](NC(=O)CNC(=O)[C@H](CCC(N)=O)NC(=O)[C@@H](CO)NC(=O)[C@@H](N)Cc1c[nH]cn1)[C@@H](C)O)[C@@H](C)O)C(=O)N[C@@H](CC(=O)O)C(=O)N[C@@H](CCC(=O)O)C(=O)N[C@@H](CCCNC(=N)N)C(=O)N[C@@H](CCCNC(=N)N)C(=O)N[C@@H](C)C(=O)N[C@@H](CCCCN)C(=O)N[C@@H](CC(=O)O)C(=O)N[C@@H](Cc1ccccc1)C(=O)N[C@H](C(=O)N[C@@H](CCC(=O)O)C(=O)N[C@@H](Cc1c[nH]c2ccccc12)C(=O)N[C@@H](CC(C)C)C(=O)N[C@@H](CCCCN)C(=O)N[C@@H](CC(N)=O)C(=O)NCC(=O)NCC(=O)N1CCC[C@H]1C(=O)N[C@@H](CO)C(=O)N[C@@H](CO)C(=O)NCC(=O)N[C@@H](C)C(=O)N1CCC[C@H]1C(=O)N1CCC[C@H]1C(=O)N1CCC[C@H]1C(=O)N[C@@H](CO)C(N)=O)[C@@H](C)CC)C(=O)O [compound 87] | 3 | 1.3 |  |  |
| CC[C@H](C)[C@H](NC(=O)[C@H](Cc1ccccc1)NC(=O)[C@H](CC(=O)O)NC(=O)[C@H](CCC(N)=O)NC(=O)[C@H](C)NC(=O)[C@H](CCCNC(=N)N)NC(=O)[C@H](CCCNC(=N)N)NC(=O)[C@H](CO)NC(=O)[C@H](CC(=O)O)NC(=O)[C@H](CCCCNC(=O)CC[C@H](NC(=O)CCC(=O)Oc1c(C)c(C)c2c(c1C)CC[C@@](C)(CCC[C@H](C)CCC[C@H](C)CCCC(C)C)O2)C(=O)O)NC(=O)[C@H](CCC(N)=O)NC(=O)[C@H](CCCCN)NC(=O)[C@H](CO)NC(=O)[C@H](CC(C)C)NC(=O)[C@H](CC(=O)O)NC(=O)[C@H](CO)NC(=O)[C@@H](NC(=O)[C@H](Cc1ccccc1)NC(=O)[C@@H](NC(=O)CNC(=O)[C@H](CCC(N)=O)NC(=O)[C@@H](CO)NC(=O)[C@@H](N)Cc1c[nH]cn1)[C@@H](C)O)[C@@H](C)O)C(=O)N[C@@H](CCC(=O)O)C(=O)N[C@@H](Cc1c[nH]c2ccccc12)C(=O)N[C@@H](CC(C)C)C(=O)N[C@@H](CCCCN)C(=O)N[C@@H](CC(N)=O)C(=O)NCC(=O)NCC(=O)N1CCC[C@H]1C(=O)N[C@@H](CO)C(=O)N[C@@H](CO)C(=O)NCC(=O)N[C@@H](C)C(=O)N1CCC[C@H]1C(=O)N1CCC[C@H]1C(=O)N1CCC[C@H]1C(=O)N[C@@H](CO)C(N)=O [compound 89] |  |  | 35.6 | 13.7 |
| CCCCCCCCCCCCCC(=O)N[C@@H](CCC(=O)NCCCC[C@H](NC(=O)[C@H](CCC(N)=O)NC(=O)[C@H](CCCCN)NC(=O)[C@H](CO)NC(=O)[C@H](CC(C)C)NC(=O)[C@H](CC(=O)O)NC(=O)[C@H](CO)NC(=O)[C@@H](NC(=O)[C@H](Cc1ccccc1)NC(=O)[C@@H](NC(=O)CNC(=O)[C@H](CCC(N)=O)NC(=O)[C@@H](CO)NC(=O)[C@@H](N)Cc1c[nH]cn1)[C@@H](C)O)[C@@H](C)O)C(=O)N[C@@H](CC(=O)O)C(=O)N[C@@H](CO)C(=O)N[C@@H](CCCNC(=N)N)C(=O)N[C@@H](CCCNC(=N)N)C(=O)N[C@@H](C)C(=O)N[C@@H](CCC(N)=O)C(=O)N[C@@H](CC(=O)O)C(=O)N[C@@H](Cc1ccccc1)C(=O)N[C@H](C(=O)N[C@@H](CCC(=O)O)C(=O)N[C@@H](Cc1c[nH]c2ccccc12)C(=O)N[C@@H](CC(C)C)C(=O)N[C@@H](CCCCN)C(=O)N[C@@H](CC(N)=O)C(=O)NCC(=O)NCC(=O)N1CCC[C@H]1C(=O)N[C@@H](CO)C(=O)N[C@@H](CO)C(=O)NCC(=O)N[C@@H](C)C(=O)N1CCC[C@H]1C(=O)N1CCC[C@H]1C(=O)N1CCC[C@H]1C(=O)N[C@@H](CO)C(N)=O)[C@@H](C)CC)C(=O)O [compound 90] | 8.8 | 3.7 |  |  |
| CC[C@H](C)[C@H](NC(=O)[C@H](Cc1ccccc1)NC(=O)[C@H](CC(=O)O)NC(=O)[C@H](CCC(N)=O)NC(=O)[C@H](C)NC(=O)[C@H](CCCNC(=N)N)NC(=O)[C@H](CCCNC(=N)N)NC(=O)[C@H](CO)NC(=O)[C@H](CC(=O)O)NC(=O)[C@H](CCCCNC(=O)CC[C@H](NC(=O)CCCCCCCCCCC(=O)OCc1ccccc1)C(=O)O)NC(=O)[C@H](CCC(N)=O)NC(=O)[C@H](CCCCN)NC(=O)[C@H](CO)NC(=O)[C@H](CC(C)C)NC(=O)[C@H](CC(=O)O)NC(=O)[C@H](CO)NC(=O)[C@@H](NC(=O)[C@H](Cc1ccccc1)NC(=O)[C@@H](NC(=O)CNC(=O)[C@H](CCC(N)=O)NC(=O)[C@@H](CO)NC(=O)[C@@H](N)Cc1c[nH]cn1)[C@@H](C)O)[C@@H](C)O)C(=O)N[C@@H](CCC(=O)O)C(=O)N[C@@H](Cc1c[nH]c2ccccc12)C(=O)N[C@@H](CC(C)C)C(=O)N[C@@H](CCCCN)C(=O)N[C@@H](CC(N)=O)C(=O)NCC(=O)NCC(=O)N1CCC[C@H]1C(=O)N[C@@H](CO)C(=O)N[C@@H](CO)C(=O)NCC(=O)N[C@@H](C)C(=O)N1CCC[C@H]1C(=O)N1CCC[C@H]1C(=O)N1CCC[C@H]1C(=O)N[C@@H](CO)C(N)=O [compound 91] | 15.1 | 8.9 |  |  |
| CCCCCCCCCCCCCCCC(=O)N[C@@H](CCC(=O)NCCCC[C@H](NC(=O)[C@H](CCC(N)=O)NC(=O)[C@H](CCCCN)NC(=O)[C@H](CO)NC(=O)[C@H](CC(C)C)NC(=O)[C@H](CC(=O)O)NC(=O)[C@H](CO)NC(=O)[C@@H](NC(=O)[C@H](Cc1ccccc1)NC(=O)[C@@H](NC(=O)CNC(=O)[C@H](CCC(N)=O)NC(=O)[C@@H](CO)NC(=O)[C@@H](N)Cc1c[nH]cn1)[C@@H](C)O)[C@@H](C)O)C(=O)N[C@@H](CC(=O)O)C(=O)N[C@@H](CO)C(=O)N[C@@H](CCCNC(=N)N)C(=O)N[C@@H](CCCNC(=N)N)C(=O)N[C@@H](C)C(=O)N[C@@H](CCC(N)=O)C(=O)N[C@@H](CC(=O)O)C(=O)N[C@@H](Cc1ccccc1)C(=O)N[C@H](C(=O)N[C@@H](CCC(=O)O)C(=O)N[C@@H](Cc1c[nH]c2ccccc12)C(=O)N[C@@H](CC(C)C)C(=O)N[C@@H](CCCCN)C(=O)N[C@@H](CC(N)=O)C(=O)N[C@H](C(=O)NCC(=O)N1CCC[C@H]1C(=O)N[C@@H](CO)C(=O)N[C@@H](CO)C(=O)NCC(=O)N[C@@H](C)C(=O)N1CCC[C@H]1C(=O)N1CCC[C@H]1C(=O)N1CCC[C@H]1C(=O)N[C@@H](CO)C(N)=O)[C@@H](C)O)[C@@H](C)CC)C(=O)O [compound 92] | 26 | 1 |  |  |
| CCCCCCCCCCCCCCCC(=O)N[C@@H](CCC(=O)NCCCC[C@H](NC(=O)[C@H](CCC(N)=O)NC(=O)[C@H](CCCCN)NC(=O)[C@H](CO)NC(=O)[C@H](CC(C)C)NC(=O)[C@H](CC(=O)O)NC(=O)[C@H](CO)NC(=O)[C@@H](NC(=O)[C@H](Cc1ccccc1)NC(=O)[C@@H](NC(=O)CNC(=O)[C@H](CCC(N)=O)NC(=O)[C@@H](CO)NC(=O)[C@@H](N)Cc1c[nH]cn1)[C@@H](C)O)[C@@H](C)O)C(=O)N[C@@H](CC(=O)O)C(=O)N[C@@H](CO)C(=O)N[C@@H](CCCNC(=N)N)C(=O)N[C@@H](CCCNC(=N)N)C(=O)N[C@@H](C)C(=O)N[C@@H](CCC(N)=O)C(=O)N[C@@H](CC(=O)O)C(=O)N[C@@H](Cc1ccccc1)C(=O)N[C@H](C(=O)N[C@@H](CCC(=O)O)C(=O)N[C@@H](Cc1c[nH]c2ccccc12)C(=O)N[C@@H](CC(C)C)C(=O)N[C@@H](CCCCN)C(=O)N[C@@H](CC(N)=O)C(=O)N[C@@H](C)C(=O)NCC(=O)N1CCC[C@H]1C(=O)N[C@@H](CO)C(=O)N[C@@H](CO)C(=O)NCC(=O)N[C@@H](C)C(=O)N1CCC[C@H]1C(=O)N1CCC[C@H]1C(=O)N1CCC[C@H]1C(=O)N[C@@H](CO)C(N)=O)[C@@H](C)CC)C(=O)O [compound 93] | 10.7 | 2.6 |  |  |
